The conditions of this data set: water content 0.2%, heptane phase read at 525 nm.

In the case of `II` [molecular iodine], the “molecular iodine stored in absolute ethanol maintained as I2” value was “over 50%”.

For the origin of these results see US20170239455A1 (priority 2014, published 2017).
